In the assay the test system is Rat striatal muscarinic receptors. Nature of the assay: Agonist intrinsic activity: inhibition of forskolin-activated [3H]cAMP in dissociated rat striatum. Format: cell-based. The text has this: Rat striatal muscarinic receptors are coupled to the inhibition of the conversion of adenosine triphosphate (ATP) to cyclic adenosine monophosphate (cAMP). This method is described in detail in D. J. Anderson and M. McKinney, Brain Res, 1988, 475:28-34. The ATP stores in dissociated rat striatum were labeled with [^3 H]adenine and [^3 H]-cAMP levels were elevated with 10 um forskolin. Muscarinic receptor activation with the agonist carbachol inhibits forskolin-activated levels of [^3 H]cAMP by about 40%. Most agonists stimulate this receptor-effector system with EC50 values in the range of 0.1-10 uM. Intrinsic activities (maximal responses relative to that of the full agonist carbachol) can thus be measured at 100 uM. Agonist activation of this biochemical response is expressed as percent activity measured at 100 uM relative to that of 100 uM carbachol.

On to `C[N+](C)(C)CCOC(N)=O` [carbachol], for which the “Agonist character at central muscarinic receptor” value is given as “full agonist”. In addition, the “Inhibition of forskolin-activated levels of [3H]cAMP” value (10 um forskolin) is reported as “about 40%”.
